Laboratory results from US12077555B2, “STAT degraders and uses thereof” (Kymera Therapeutics, Inc., priority 2019, dated 2024).

Sequences of proteins named here, by UniProt entry; tags and fusion partners are left off. A change or cut given only in a name is not applied to a line headed by its entry. Residues count along the entry.
UniProt P40763, whole entry: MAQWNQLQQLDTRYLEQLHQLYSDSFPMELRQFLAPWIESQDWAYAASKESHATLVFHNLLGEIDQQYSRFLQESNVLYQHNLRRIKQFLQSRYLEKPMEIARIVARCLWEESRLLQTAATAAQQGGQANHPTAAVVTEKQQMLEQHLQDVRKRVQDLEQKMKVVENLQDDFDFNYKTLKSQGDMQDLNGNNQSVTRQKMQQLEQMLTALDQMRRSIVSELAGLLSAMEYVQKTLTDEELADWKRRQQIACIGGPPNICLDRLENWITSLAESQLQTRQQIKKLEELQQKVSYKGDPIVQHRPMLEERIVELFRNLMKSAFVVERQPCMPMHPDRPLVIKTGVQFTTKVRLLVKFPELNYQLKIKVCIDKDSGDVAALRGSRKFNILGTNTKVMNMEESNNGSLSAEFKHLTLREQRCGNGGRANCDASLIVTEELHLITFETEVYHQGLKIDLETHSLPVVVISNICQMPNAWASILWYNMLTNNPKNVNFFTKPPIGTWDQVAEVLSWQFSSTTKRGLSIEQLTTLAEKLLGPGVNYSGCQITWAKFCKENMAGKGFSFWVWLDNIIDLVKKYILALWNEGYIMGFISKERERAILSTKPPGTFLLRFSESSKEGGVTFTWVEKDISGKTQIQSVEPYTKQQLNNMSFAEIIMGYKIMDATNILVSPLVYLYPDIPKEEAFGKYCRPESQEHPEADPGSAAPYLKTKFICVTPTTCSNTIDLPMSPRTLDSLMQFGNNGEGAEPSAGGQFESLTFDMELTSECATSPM
UniProt P40763, whole entry D661Y: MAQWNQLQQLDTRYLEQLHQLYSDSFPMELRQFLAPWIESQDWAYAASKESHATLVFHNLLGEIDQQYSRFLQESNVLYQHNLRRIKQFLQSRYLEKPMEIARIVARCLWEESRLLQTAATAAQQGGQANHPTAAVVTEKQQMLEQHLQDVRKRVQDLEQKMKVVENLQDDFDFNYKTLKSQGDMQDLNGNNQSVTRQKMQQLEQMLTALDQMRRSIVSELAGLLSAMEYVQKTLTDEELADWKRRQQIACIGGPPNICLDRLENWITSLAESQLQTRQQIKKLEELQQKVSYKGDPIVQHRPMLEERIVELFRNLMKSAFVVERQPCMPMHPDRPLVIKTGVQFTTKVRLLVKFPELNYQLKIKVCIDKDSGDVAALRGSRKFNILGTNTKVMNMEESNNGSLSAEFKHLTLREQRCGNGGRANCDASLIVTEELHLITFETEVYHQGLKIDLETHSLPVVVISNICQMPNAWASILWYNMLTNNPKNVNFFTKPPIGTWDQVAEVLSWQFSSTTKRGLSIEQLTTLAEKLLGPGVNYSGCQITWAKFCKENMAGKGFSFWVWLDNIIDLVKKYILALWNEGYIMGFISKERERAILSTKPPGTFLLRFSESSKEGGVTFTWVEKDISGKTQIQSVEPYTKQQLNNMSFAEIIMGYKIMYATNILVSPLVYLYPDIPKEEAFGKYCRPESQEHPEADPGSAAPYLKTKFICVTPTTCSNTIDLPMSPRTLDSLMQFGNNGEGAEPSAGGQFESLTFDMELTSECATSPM
UniProt P40763, 2-770 D661Y limits assumed: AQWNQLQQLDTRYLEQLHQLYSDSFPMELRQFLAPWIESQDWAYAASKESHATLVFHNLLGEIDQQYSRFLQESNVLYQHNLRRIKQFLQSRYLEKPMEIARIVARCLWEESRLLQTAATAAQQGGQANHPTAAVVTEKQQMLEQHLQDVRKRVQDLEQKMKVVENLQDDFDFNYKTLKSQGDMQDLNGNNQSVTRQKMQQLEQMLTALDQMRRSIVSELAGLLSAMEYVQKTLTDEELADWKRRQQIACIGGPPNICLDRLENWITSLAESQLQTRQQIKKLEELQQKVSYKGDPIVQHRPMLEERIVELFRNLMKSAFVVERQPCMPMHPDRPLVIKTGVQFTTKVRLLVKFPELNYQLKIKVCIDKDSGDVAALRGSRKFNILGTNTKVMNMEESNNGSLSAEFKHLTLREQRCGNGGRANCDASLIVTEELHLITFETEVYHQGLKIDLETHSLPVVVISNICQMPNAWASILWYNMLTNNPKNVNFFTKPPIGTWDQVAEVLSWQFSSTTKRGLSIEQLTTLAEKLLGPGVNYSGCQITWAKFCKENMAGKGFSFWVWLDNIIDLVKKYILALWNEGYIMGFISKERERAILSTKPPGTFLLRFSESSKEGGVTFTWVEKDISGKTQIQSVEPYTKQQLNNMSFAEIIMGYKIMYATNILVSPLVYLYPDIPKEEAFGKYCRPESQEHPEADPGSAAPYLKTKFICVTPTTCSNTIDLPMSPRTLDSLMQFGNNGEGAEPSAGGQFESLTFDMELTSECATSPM

Legend:
[1] = target: T1, STAT3 (Homo sapiens, UniProt P40763); experiment: Quantitation of STAT3 degradation in A549 cells by Western blot; format: cell-based; settings: read-out: A549 DC50, 24 hours, tested up to 30 μM or 10 μM, tested form: diammonium
Protocol: Degradation of total cellular STAT3 protein in A549 was quantitatively measured using SDS-PAGE and Western blot analysis. A549 cells (5×10^5 cells/well, 2 mL) were seeded into 6-well plates and were incubated in the incubator under 5% CO2 overnight to reach ˜80% confluency. The next day, the culture medium was changed with 1 ml fresh media. Then, 1 mL of media containing 2× compound solution was added into the well to make the final concentration of 30 μM, 10 μM, 3 μM, 1 μM, 0.3 μM and 0 μM (DMSO). The media was thoroughly mixed and incubated for 24 hours at 37° C. under 5% CO2. Then, the culture media was removed from the assay plates and the cells were washed with ice-cold PBS twice. To prepare cell lysates, 200 ul pre-chilled RIPA lysis buffer (Boston BioProducts BP-115D) with protease/phosphatase inhibitor (Roche 05892791001/Roche 04906837001) was added directly into the well to lyse the cells for 20 minutes on ice. The cell lysates were then transferred to centrifuge tubes. Insoluble part of lysates was removed by centrifuging the lysates at 13000 rpm for 20 minutes. The supernatant was then collected and mixed with 5× loading buffer (Beyotime Bio P0015) to make the final samples for SDS-PAGE analysis. The samples were heated at 100° C. for 10 minutes and cool to room temperature before centrifuging at 13000 rpm for 20 minutes. To analyze the samples by SDS-PAGE, 10 ul samples were loaded onto SDS-PAGE gel (Novex, WG1403BOX) and the SDS-PAGE gel was run for 20 minutes at 80 V, then at 120 V for 1.5 hours. The SDS-PAGE gel was then transferred to nitrocellulose membrane using the wet-transfer method at 250 mA for 1.5 hours. The membrane was then blocked with LI-COR blocking buffer (LI-COR, 927-50000) for 1 hour and was probed with primary antibody (mouse anti-STAT3 (124H6) (CST #91395) 1:2000 or mouse anti-beta-Actin (8H10D10) (CST #3700) 1:10000) at 4° C. overnight. The membrane was then washed three times with TBST buffer and probed with secondary antibody (anti-mouse IgG (LI-COR, 926-68070), 1:5000) for 1 hour at room temperature. The membrane was then scanned on a LI-COR Odyssey instrument and was quantified using Image Studio Version 5.2. Concentration at 50% degradation (DC50) was calculated by fitting dose dependent degradation data using a sigmoidal equation using GraphPad Prism Version 8.0.

[2] = target: mutant STAT3 (Homo sapiens, UniProt P40763, D661Y); experiment: STAT3 MSD assay, mutant STAT3 cell lines; format: cell-based; settings: mutant STAT3 heme cell lines, FIG. 12; tested form: diammonium
Protocol: (§1) 100 nl of compounds were added into the intermediate plate with Echo (Labcyte 550) from source plate containing a 3-fold serial dilution from top concentration of 1 mM. Cells were seeded into 96-well plates (4×10^4 cells/well/100 ul media), mixed well, and incubated for 24 hours. The media was aspirated from the cultures and 60 μL pre-chilled PIPA lysis buffer (Boston BioProducts BP-115D) with protease/phosphatase inhibitor (Roche 05892791001/Roche 04906837001) was added into the well to lyze the cells for 20 minutes at 4° C. The MSD plate (L15XA) was coated with 2 ug/ml capture antibody (ab119352) in PBS and incubated at 4° C. overnight. The next day, the plate was washed three times with TBST (CST #99975), 150 μL/well. MSD plates were blocked with 150 μL blocking buffer per well and shaken for 1 hr at RT and 600 rpm. The blocking buffer was 3% Blocker A (MSD, R93BA-4) in TBST. The MSD plate was washed three times with 150 μL/well of TBST and 70 μL cell lysate was added into the well and shaken for 1 hour at RT and 600 rpm. […] The MSD plate washed three times with 150 μL/well of TBST and added 150 μL/well of 2×MSD reading buffer diluted from 4× (MSD, R92TC-2) with water. Lastly the MSD instrument was read.

[3] = test system: mutant STAT3; experiment: STAT3 MSD assay, mutant STAT3 cell lines; format: cell-based; settings: mutant STAT3 HEK293 cell lines, FIG. 11; tested form: diammonium
Protocol: as §1

[4] = target: mutant STAT3 (STAT D661Y) (Homo sapiens, UniProt P40763, D661Y); experiment: degradation of mutant STAT3 in HDLM-2 cell lines, dose response; settings: dose response curve, tested form: diammonium
Excerpt: FIG. 9 depicts a dose response curve showing I-111 degrading mutant STAT3 (STAT D661Y) in HDLM-2 cell lines.
FIG. 12 depicts a dose response curve showing I-83 degrading mutant STAT3 (STAT D661Y) in HDLM-2 cell lines.

[5] = test system: STAT3 mutants (WT, D661Y, D661V, Y640F, K392R); experiment: Flag-STAT3 levels of STAT3 mutants ectopically overexpressed in HEK293 cells; settings: 3 μM, 24 hr, tested form: diammonium
Protocol: FIG. 11 depicts degradation results of the reduction of STAT3 in STAT3 mutants using I-83 (3 μM, 24 hr) in ectopically overexpressed HEK293 cells showing Flag-STAT3 levels (% DMSO)(y-axis) for WT, D661Y (SH2), D661V (SH2), Y640F (SH2), and K392R (DBD) mutants (x-axis).

[6] = target: T1, STAT3; experiment: STAT3 MSD assay; format: cell-based; settings: for DC50: read-out: STAT3 MSD DC50
Protocol: 100 nl of compounds were added into the intermediate plate with Echo (Labcyte 550) from source plate containing a 3-fold serial dilution from top concentration of 1 mM. Cells were seeded into 96-well plates (4×10^4 cells/well/100 ul media), mixed well, and incubated for 24 hours. The media was aspirated from the cultures and 60 μL pre-chilled PIPA lysis buffer (Boston BioProducts BP-115D) with protease/phosphatase inhibitor (Roche 05892791001/Roche 04906837001) was added into the well to lyze the cells for 20 minutes at 4° C. The MSD plate (L15XA) was coated with 2 ug/ml capture antibody (ab119352) in PBS and incubated at 4° C. overnight. The next day, the plate was washed three times with TBST (CST #99975), 150 μL/well. MSD plates were blocked with 150 μL blocking buffer per well and shaken for 1 hr at RT and 600 rpm. The blocking buffer was 3% Blocker A (MSD, R93BA-4) in TBST. The MSD plate was washed three times with 150 μL/well of TBST and 70 μL cell lysate was added into the well and shaken for 1 hour at RT and 600 rpm. The MSD plate was washed three times with 150 μL/well of TBST and added 25 μL/well of detection antibody (ab68153) to a final concentration of 1 μg/ml diluted in 1% blocking buffer and shaken for 1 hour at RT and 600 rpm. MSD plate was washed three times with 150 μL/well of TBST and added 25 μL/well of SULFO-TAG anti-rabbit antibody (MSD, R32AB-1) to a final concentration of 1 μg/mL diluted in 1% blocking buffer and shaken for 1 hour at RT and 600 rpm. The MSD plate washed three times with 150 μL/well of TBST and added 150 μL/well of 2×MSD reading buffer diluted from 4× (MSD, R92TC-2) with water. Lastly the MSD instrument was read.

[7] = target: T1, STAT3; experiment: Live cell degradation kinetics in A549 HiBiT cells; settings: FIG. 3A, FIG. 21
Protocol: 700,000 A549 HiBiT cells were seeded in 60 mm dish and rested overnight at 37° C. Cells were transfected with LgBiT vector comprising 6.5 μg plasmid DNA+19.5 μL FuGENE HD transfection reagent per 60 mm dish (scale up/down as necessary). Following 24 h post transfection, cells were trypsinized and seeded at 2,000 cells/well in 40 μL in a 384-well plate. Cells were not seeded in the 2 outermost columns/rows to avoid evaporation. Outer wells were filled with PBS. After allowing the cells to settle overnight, Endurazine 1:100 was added to the cells by first diluting 1:10 in media and further diluting 1:10 in 40 μL of cells by adding ˜4.4 μL of diluted Endurazine in plate #1. Cells were incubated at 37° C. for 2.5 h. Compound was added with Tecan HPd300 dispenser (final DMSO=0.1%) to both plates (10 point, 1:3 dilution; 30 μM top dose). Plate #1 luminescence was read at t=0, 30 min, 1h, 2h, 4h, 6h, 8h, 16h, 24 h, 48h. Plate was returned to incubator between reads.

Structure (SMILES): Cc1ncsc1-c1ccc(CNC(=O)[C@@H]2C[C@@H](O)CN2C(=O)[C@@H](NC(=O)CCCCc2ccc(CO[C@H](C)[C@H](CCC(N)=O)NC(=O)[C@@H]3Cc4cccc5c4N3C(=O)[C@@H](NC(=O)c3cc4cc(C(=O)P(=O)(O)O)ccc4[nH]3)CC5)cc2)C(C)(C)C)cc1
- DC50 [1]: < 30000 nM
- degradation of mutant STAT3 [2]: degrades mutant STAT3 heme cell lines
- degradation of mutant STAT3 [3]: degrades mutant STAT3 HEK293 cell lines
- degradation of mutant STAT3 (STAT D661Y) [4]: degrading mutant STAT3
- Flag-STAT3 levels in STAT3 mutants [5]: reduction of STAT3

Structure (SMILES): Cn1c(=O)n(C2CCC(=O)NC2=O)c2ccc(C[C@H]3CC[C@@H](CC(=O)N4CC[C@H]5CC[C@@H](C(=O)N[C@@H](CCC(N)=O)C(=O)NC(c6ccccc6)c6ccccc6)N5C(=O)[C@@H](NC(=O)c5cc6cc(C(=O)P(=O)(O)O)ccc6[nH]5)C4)CC3)cc21 (stereo partly drawn) [Compound I-174, 2-[[(5S,8S,10aR)-8-[[(1S)-3-carbamoyl-1-(diphenylmethylcarbamoyl)propyl]carbamoyl]-6-oxo-3-[2-[(1s,4s)-4-[[1-(2,6-dioxopiperidin-3-yl)-3-methyl-2-oxo-1,3-benzodiazol-5-yl]methyl]cyclohexyl]acetyl]-octahydropyrrolo[1,2-a][1,5]diazocin-5-yl]carbamoyl]-1H-indole-5-carbonylphosphonic acid]
- STAT3 MSD % Amax ([6]; DEL, 24 hr): 95%
- STAT3 MSD % Amax ([6]; KI-JK, 24 hr): 97%
- STAT3 MSD % Amax ([6]; SU-DHL-1, 24 hr): > 95%
- STAT3 MSD % Amax ([6]; SUP-M2, 24 hr): 95%
- DC50 ([6]; DEL, 24 hr): 16 nM
- DC50 ([6]; KI-JK, 24 hr): 47 nM
- DC50 ([6]; SU-DHL-1, 24 hr): 15 nM
- DC50 ([6]; SUP-M2, 24 hr): 86 nM
- degradation of STAT3, live cell kinetics [7]: rapid and potent degradation of STAT3
